From article PMC3031978 (Bioorganic & medicinal chemistry letters, 2010)

Protein sequences, listed by entry. Tags and fused reporters are not part of them.
UniProt P35372, whole entry: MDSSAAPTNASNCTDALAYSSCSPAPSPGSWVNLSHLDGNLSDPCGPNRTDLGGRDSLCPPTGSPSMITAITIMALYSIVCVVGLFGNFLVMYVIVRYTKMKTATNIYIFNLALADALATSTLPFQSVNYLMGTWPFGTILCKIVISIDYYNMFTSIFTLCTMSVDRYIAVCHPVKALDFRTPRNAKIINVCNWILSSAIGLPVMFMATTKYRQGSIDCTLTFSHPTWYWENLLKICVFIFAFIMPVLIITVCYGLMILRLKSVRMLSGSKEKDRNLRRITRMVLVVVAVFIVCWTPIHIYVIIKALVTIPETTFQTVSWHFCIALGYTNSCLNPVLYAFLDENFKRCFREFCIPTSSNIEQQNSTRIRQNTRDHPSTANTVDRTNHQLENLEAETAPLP
UniProt P41143, whole entry: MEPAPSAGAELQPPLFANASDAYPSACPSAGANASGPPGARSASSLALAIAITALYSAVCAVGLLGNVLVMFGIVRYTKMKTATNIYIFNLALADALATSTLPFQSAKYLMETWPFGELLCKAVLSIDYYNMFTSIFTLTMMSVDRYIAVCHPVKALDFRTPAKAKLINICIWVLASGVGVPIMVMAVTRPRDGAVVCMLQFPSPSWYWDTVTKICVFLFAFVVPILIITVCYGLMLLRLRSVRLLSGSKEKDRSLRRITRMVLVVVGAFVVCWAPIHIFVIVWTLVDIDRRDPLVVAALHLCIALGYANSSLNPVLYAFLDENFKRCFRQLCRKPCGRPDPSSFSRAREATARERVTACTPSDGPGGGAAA

Experiments:
[1] = molecular target: MOR (Homo sapiens, UniProt P35372); type: binding; conditions: read-out: Ki [MOR; against [3H]DAMGO
[2] = molecular target: DOR (Homo sapiens, UniProt P41143); type: binding; conditions: read-out: Ki [DOR; against [3H]DADLE

Work on `COC(=O)[C@@H]1C[C@H](OC(C)=O)C(=O)[C@H]2[C@@]1(C)CC[C@H]1C(=O)O[C@H](c3ccoc3)C[C@]21C` [SA, salvinorin A] yielded a Ki [1] greater than 10 µM and a Ki [2] greater than 10 µM.
